Values of other authors as cited in PMC11852064 (Antibiotics, 2025).

Conditions: cited from earlier work

Dalbavancin
Terminal half-life: about 14.4 days
